Values of other authors, collected in US20140336503A1, “RA[…] […] RELATED METHODS THEREOF” (The Regents of the University of Michigan, priority 2013, published 2014).
pIC50: −log10 of the molar value.

By UniProt entry, the sequences of proteins in these tests, tags left out. Residues count along the entry.
UniProt P43235, 115-329 limits assumed: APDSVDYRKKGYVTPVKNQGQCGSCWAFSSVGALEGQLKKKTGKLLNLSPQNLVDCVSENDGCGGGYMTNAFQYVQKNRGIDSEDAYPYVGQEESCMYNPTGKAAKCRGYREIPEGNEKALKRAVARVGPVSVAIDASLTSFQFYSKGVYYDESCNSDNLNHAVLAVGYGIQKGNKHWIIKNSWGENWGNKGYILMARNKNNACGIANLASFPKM

Target: human cathepsin K (Homo sapiens, UniProt P43235)
Conditions: in vitro, tested as the radiolabelled form; cited from earlier work

COc1ccc(CCNC(=O)c2cnc(C#N)nc2NCC(C)(C)C)cc1 [[^11C]2, 2-cyano-N-(4-[^11C]methoxyphenethyl)-4-(neopentylamino)pyrimidine-5-carboxamide]
pIC50: 11.52
